This is an account of results in PubChem BioAssay AID2303 (GlaxoSmithKline (GSK), 2010).

The list shows a part of the results, in another mix than the full data. Activity calls are given as the source filed them.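 Rule for the calls: active = inhibition above 50%; inactive = the rest.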

A short description of this assay: HepG2 cytotoxicity, primary screen, cytotoxicity control for P. falciparum antimalarial project, cell-based, ATP luminescence (AID 2303).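 Note: 0% = DMSO wells and 100% = digitonin-killed cells.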 To be noted: HepG2 viability, 24-48 h, at 10 µM, hits give high values.
Regarding `COc1cc(C(=O)NC(SC2=NCCS2)C(Cl)(Cl)Cl)cc(OC)c1OC` (stereo unspecified), the inhibition is inactive: 4%.

Broadly, the inhibition is the percentage by which the read-out fell short of the control.
